Assay results as given in patent US6825191B2, “Benzodiazepine derivatives” (Ajinomoto Co., Inc., priority 2000, dated 2004).

Amino acid sequences for entries named in this document (tags omitted). Residues count along the entry.
UniProt P00742, 235-488 limits assumed: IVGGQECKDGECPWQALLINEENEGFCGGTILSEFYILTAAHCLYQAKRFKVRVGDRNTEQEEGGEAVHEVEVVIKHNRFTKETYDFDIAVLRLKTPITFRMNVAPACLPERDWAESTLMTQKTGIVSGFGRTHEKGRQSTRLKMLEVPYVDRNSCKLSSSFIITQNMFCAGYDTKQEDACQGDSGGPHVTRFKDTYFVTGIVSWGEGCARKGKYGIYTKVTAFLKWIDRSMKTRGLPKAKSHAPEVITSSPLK
UniProt P00742, 41-179 partner limits assumed: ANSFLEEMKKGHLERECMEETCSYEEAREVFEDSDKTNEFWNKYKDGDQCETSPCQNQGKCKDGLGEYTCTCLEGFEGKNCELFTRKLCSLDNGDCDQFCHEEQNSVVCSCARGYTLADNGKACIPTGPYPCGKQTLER

Experiments:
[1] = biological target: activated human blood coagulation factor X (Homo sapiens, UniProt P00742); assay: Determination of activity of inhibiting the activated blood-coagulation factor X (chromogenic substrate, initial rate); conditions: negative logarithm of concentration inhibiting 50% of initial rate; tris hydrochloride buffer pH 8.4, room temperature; tested form: TFA
Procedure: Determination of Activity of inhibiting the Activated Blood-coagulation Factor X
130 μl of 100 mM tris hydrochloride buffer adjusted to pH 8.4 was added to 10 μl of an aqueous solution of a compound to be tested. Then 10 μl of a 0.5 unit/ml solution of activated human blood coagulation factor X (a product of Enzyme Research Co.) in tris hydrochloride buffer of pH 8.4 was added to the resultant mixture. After the incubation at room temperature for 10 minutes, 50 μl of a solution of N-benzoyl-L-isoleucyl-L-glutamyl-glycyl-L-arginyl-P-nitroanilide hydrochloride (a product of Peptide Institute Inc.) adjusted to 0.8 mM with tris hydrochloride (pH 8.4) was added thereto. The a absorbance was determined and then the initial reaction rate was determined. A control was prepared in the same manner as that described above except that the solution of the compound to be tested was replaced with 10 μl of tris hydrochloride buffer adjusted to pH 8.4. The absorbance was determined with MICROPLATE READER Model 3550-UV (a product of BIO RAD) at a wave length of 405 nm at intervals of 15 seconds for 16 minutes.

human thrombin = human thrombin (Homo sapiens, UniProt P00734); assay: Determination of thrombin-inhibiting activity (chromogenic substrate S-2238, initial rate); conditions: negative logarithm of concentration inhibiting 50% of initial rate; tris hydrochloride buffer pH 8.4, room temperature; tested form: TFA
Procedure: Determination of Thrombin-inhibiting Activity
130 μL of 100 mM tris hydrochloride buffer adjusted to pH 8.4 was added to 10 μl of an aqueous solution of a test compound. Then 10 μl of a solution of human thrombin (a product of SIGMA Co.) adjusted to 2 units/ml with tris hydrochloride buffer of pH 8.4 was added to the resultant mixture. After the incubation at room temperature for 10 minutes, 50 μl of a solution of D-phenylalanine-L-pipecolyl-L-arginine-P-nitroanilide dihydrochloride (S-2238; a product of Daiichi Kagaku Yakuhin Co.) adjusted to 0.4 mM with tris hydrochloride buffer of pH 8.4 was added thereto. The absorbance was determined and then the initial reaction rate was determined. A control was prepared in the same manner as that described above except that the solution of the compound to be tested was replaced with 10 μl of tris hydrochloride buffer adjusted to pH 8.4. The absorbance was determined with MICROPLATE READER Model 3550-UV (a product of BIO RAD) at a wave length of 405 nm at intervals of 15 seconds for 16 minutes. The negative logarithm (pIC50) of a concentration of the test compound which inhibits 50% of the activity (initial rate) of the thrombin in the absence of the test compound was determined, and employed as the index of the activity of inhibiting thrombin.

Activity of inhibiting activated blood coagulation factor X (pIC50) [1]: 6.5
Thrombin-inhibiting activity (pIC50) (human thrombin): 4.1
Compound: CN1CCN=C1c1ccc(CN2C(=O)CN(C(=O)c3ccc(Cl)cc3)Cc3ccccc32)c(F)c1
